# Read-outs that look alike come from different tables or passages of the source.
# System: mouse colon carcinoma cell CT26
substance,measurement,setting,value
bleomycin,degree of viable cells in percentage relative to the medium group (=100%),bleomycin 500 ng/well,89.4%
same,degree of viable cells in percentage relative to the medium group (=100%),bleomycin 5 μg/well,74.8%
same,degree of viable cells in percentage relative to the medium group (=100%),bleomycin 50 μg/well,33.9%
